# In published antibiotic growth screens (doi:10.1038/s41589-023-01349-8):
# This is one part of the list.
# System: A. baumannii ATCC 17978
# Assay: relative growth (fraction of control); higher = less inhibition
# Conditions: 50 µM
row,SMILES,relative growth
1,CN(C)CCC(c1ccc(Br)cc1)c1ccccn1.O=C(O)/C=C\C(=O)O (stereo not drawn),1.22
2,CN(C)CC(=O)N[C@@H]1CC[C@H](CCn2cc(CN(C)C)nn2)O[C@H]1CO,0.964
3,Cc1c(OCC(F)(F)F)ccnc1C[S@@](=O)c1nc2ccccc2[nH]1,1.06
4,CN1C(=O)[C@@H](O)N(c2ccccc2)C1=O,0.995
5,O=C(Nc1ccccc1)Nc1ccc(Nc2ccccc2)cc1,1.24
6,O=C(C[C@H]1C=C[C@@H](NC(=O)Nc2ccc3c(c2)OCO3)[C@@H](CO)O1)NCCCN1CCOCC1,1
7,Nc1cc(=O)nc2sc(C3CC3)nn12,1.05
8,COc1ccccc1NC(=O)N(C)C[C@H]1Oc2ncc(Br)cc2C(=O)N([C@H](C)CO)C[C@@H]1C,0.985
9,COC(=O)c1c2oc(c1C(=O)OC)C(=O)N(C)Cc1cn(nn1)C[C@H](Cc1ccccc1)NC(=O)N[C@H](CO)CC2,1.14
10,COC(=O)C1=C2CC[C@H](CO)NC(=O)N[C@H](Cc3ccccc3)C(=O)NCc3cn(nn3)C[C@H](Cc3ccccc3)NC(=O)c3oc(c(C(=O)OC)c3C(=O)OC)CC[C@H](CO)NC(=O)N[C@H](Cc3ccccc3)C(=O)NCc3cn(nn3)C[C@H](Cc3ccccc3)NC(=O)C(=C1C(=O)OC)O2,0.925
11,CC(C)CC#Cc1ccc2c(c1)O[C@@H](CN(C)S(=O)(=O)c1ccc(F)cc1)[C@@H](C)CN([C@@H](C)CO)S2(=O)=O,1.12
12,O=C(C[C@@H]1C=C[C@@H](NC(=O)c2cccnc2)[C@H](CO)O1)NCc1ccncn1,0.998
13,O=C(C[C@@H]1C=C[C@@H](NC(=O)C2CC2)[C@@H](CO)O1)NCCCN1CCOCC1,1.03
14,CN1CCN(CC(=O)N2c3ccccc3C(=O)Nc3cccnc32)CC1.Cl.Cl,1.14
15,O=C(C[C@H]1CC[C@@H](NC(=O)Nc2ccc3c(c2)OCO3)[C@@H](CO)O1)NCCCN1CCOCC1,1.08
16,CN1CCN(C(=O)C[C@H]2CC[C@@H]3[C@H](COC[C@@H](O)CN3Cc3ccc(Oc4ccccc4)cc3)O2)CC1,0.958
17,C=CCN1C(=O)[C@@]2(O[C@@H](CCn3cc([C@H](O)c4ccccc4)nn3)[C@H]([Si](C)(C)c3ccc(OC)cc3)[C@H]2C)c2cc(N3C(=O)c4cccc5cccc3c45)ccc21,1.18
18,O=C(NCCCO)C(=O)NC[C@H]1COc2ccccc2O1,0.942
19,O=C(C[C@@H]1CC[C@H]2[C@@H](COC[C@H](O)CN2S(=O)(=O)c2ccc(Cl)cc2)O1)NCCN1CCCCC1,0.9
20,O=C(CCc1ccc(O)cc1)c1c(O)cc(O)cc1O[C@@H]1O[C@H](CO)[C@@H](O)[C@H](O)[C@H]1O,1.01
21,Nc1ncnc2c1nc(Br)n2[C@H]1O[C@H]2COP(=O)(O)O[C@@H]2[C@@H]1O,1.13
22,C[C@@H]1CN([C@H](C)CO)C(=O)c2cc(-c3cccc(C(=O)N(C)C)c3)cnc2O[C@@H]1CN(C)C(=O)Cc1ccccn1,0.944
23,O=C1O[C@H](C(O)CO)C(O)=C1O (stereo partly drawn),0.985
24,CCNC(=O)C[C@H]1C=C[C@@H](NC(=O)C2CC2)[C@H](CO)O1,0.978
25,COc1cc2c(cc1OC)-c1c(oc3cc4c(cc3c1=O)CCO4)CO2,0.956
26,O=C(C[C@H]1C[C@@H]2c3cc(NC(=O)NC4CCCC4)ccc3O[C@@H]2[C@@H](CO)O1)NCc1ccc2c(c1)OCO2,0.889

row,SMILES,relative growth
1,O=C(CCCCCNC(=O)OCCCCO[C@H]1C[C@H]2C(I)=C[C@@H]1C(=O)[C@]21CCCO1)NO,0.888
2,Cc1noc(C)c1NC(=O)N[C@@H]1C=C[C@@H](CC(=O)N2CCN(C)CC2)O[C@@H]1CO,0.943
3,COC1C(O)C(O)C(O)[C@@H](O)C1O (stereo partly drawn),1.01
4,CC(C)NCC(O)COc1ccc(COCCOC(C)C)cc1.O=C(O)/C=C/C(=O)O (stereo not drawn),0.992
5,O=C(NCCC1=CCCCC1)c1sc2ccccc2c1Cl,1.03
6,COc1ccc([Si](C)(C)[C@H]2[C@H](CC(=O)N(CCO)Cc3ccccc3)O[C@@]3(C(=O)N(Cc4cccc(N5CCCCC5=O)c4)c4ccccc43)[C@@H]2C)cc1,1.14
7,Cn1nnnc1-c1ccc(N)cc1,0.912
8,CCS(=O)(=O)NCC[C@@H]1CC[C@@H](NC(=O)C2CCOCC2)[C@H](CO)O1,1.06
9,CCCC1CCC(c2ccc(OC(=O)c3ccco3)cc2)CC1 (stereo not drawn),1.21
10,C[C@@H]1CN([C@H](C)CO)S(=O)(=O)c2ccc(Br)cc2O[C@@H]1CN(C)S(=O)(=O)c1ccc(F)cc1,0.74
11,CN1CCN(C(=O)C[C@@H]2CC[C@@H]3[C@H](COC[C@H](O)CN3S(=O)(=O)c3cccc(Cl)c3)O2)CC1,1.14
12,CC[C@H]1Sc2ccccc2NC1=O,0.815
13,N[C@H]1[C@H](CCCCC(=O)O)SC[C@@H]1N,0.996
14,Cl.N[C@@H](COP(=O)(O)O)C(=O)O,0.969
15,CCCc1cc(=O)[nH]c(=S)[nH]1,0.994
16,COC(=O)c1cccc(C(=O)OC)n1,1
17,CC1=C(CC(=O)O)c2cc(F)ccc2/C1=C\c1ccc(S(C)=O)cc1 (stereo not drawn),0.923
18,Cc1ccccc1S(=O)(=O)N1C[C@H](O)COC[C@@H]2O[C@H](CC(=O)N3CCC(Cc4ccccc4)CC3)CC[C@H]21,0.836
19,COc1ccc(S(=O)(=O)N[C@H]2CC[C@H](CC(=O)N3CCN(c4ccccc4)CC3)O[C@@H]2CO)cc1,1.15
20,C[C@H](CO)N1C[C@H](C)[C@@H](CN(C)C(=O)Cc2ccncc2)Oc2cc(C3=CCCC3)ccc2S1(=O)=O,0.968
21,O=C(O[C@@H]1Cc2c(O)cc(O)cc2O[C@@H]1c1cc(O)c(O)c(O)c1-c1c([C@H]2Oc3cc(O)cc(O)c3C[C@H]2O)cc(O)c(O)c1O)c1cc(O)c(O)c(O)c1,0.83
22,CC(=O)N[C@@H]1CC[C@@H](CCNC(=O)C2CC2)O[C@@H]1CO,0.96
23,NCC(=O)NC1CCCCC1,0.972
24,CC1=C(CCC(=O)O)c2cc3[nH]c(cc4nc(cc5[nH]c(cc1n2)c(C)c5C(C)O)C(C)=C4C(C)O)c(C)c3CCC(=O)O (stereo not drawn),1.04
25,COc1ccc(COCC23Oc4ccccc4[C@H]([C@H]2COC(=O)NCCCCCC(=O)NO)n2c(c4c(c(C(C)=O)c2=O)C(=O)N(C)C4=O)N3C)cc1,0.979
26,O=C1O[C@H](c2ccccc2)[C@H](c2ccccc2)N2[C@H]1[C@@H](C(=O)N1CCN(c3ncccn3)CC1)[C@]1(C(=O)Nc3ccc(C#CC4(O)CCCCCC4)cc31)[C@H]2c1ccccc1OCCO,1.19

row,SMILES,relative growth
1,C[C@@H](O)C#Cc1ccc2c(c1)O[C@H](CN(C)C(=O)C1CCCCC1)[C@@H](C)CN([C@@H](C)CO)S2(=O)=O,0.93
2,CN1CCc2c(c3ccccc3n2Cc2ccccc2)C1,0.905
3,Nc1nc(N)c2nc(CNc3ccc(C(=O)NC(CCC(=O)O)C(=O)O)cc3)cnc2n1 (stereo not drawn),0.988
4,Cl.NC1=NCC2c3ccccc3Cc3ccccc3N12 (stereo not drawn),0.935
5,N=C(NO)C(=O)Nc1ccccc1,0.89
6,O=C(CN1CCNCC1)c1ccc(F)cc1,0.862
7,COc1cc2c(cc1OC)C(=O)C(CC1CCN(Cc3ccccc3)CC1)C2.Cl (stereo not drawn),0.161
8,NC(=O)N1C(=O)[C@H]2[C@H](C1=O)[C@H]1C=C(CCCO)[C@@H]2[C@H](c2cccs2)N1Cc1cc2c(cc1Br)OCO2,1.05
9,COc1ccc([C@@H]([C@H](Cc2ccccc2)OC(C)=O)N2C[C@@H](OC(C)=O)[C@@H]3[C@H]([C@@H]2Cc2ccccc2)N(C)O[C@H]3c2ccccc2)cc1,1.18
10,CC(C)(C)[C@H]1COC(=O)[C@@H](NC(=O)OCC2c3ccccc3-c3ccccc32)CC=CC[C@@H](CC(=O)N[C@H](CO)Cc2ccccc2)C(=O)N1,1.07
11,Cc1ccc(Nc2c(F)cccc2Cl)c(CC(=O)O)c1,1.04
12,C[C@@H]1O[C@@H](O[C@H]2[C@@H](Oc3cc(O)c4c(c3)O[C@H](c3ccc(O)cc3)CC4=O)O[C@H](CO)[C@@H](O)[C@@H]2O)[C@H](O)[C@H](O)[C@H]1O,1.04
13,N#Cc1c(N)n(CCN)c2nc3ccccc3nc12,0.932
14,COc1ccc([C@@H]([C@H](Cc2ccccc2)OC(C)=O)N2C[C@@H]3[C@H]([C@@H]2Cc2ccccc2)N(C)O[C@@]3(O)[C@@H](O)c2ccccc2)cc1,1.17
15,CC1(C)O[C@]2(C)CC[C@H]1CC2,1.03
16,COc1ccc([Si](C)(C)[C@H]2[C@H](CC(=O)N3Cc4ccccc4C[C@H]3CO)O[C@@]3(C(=O)N(Cc4ccc(N5C(=O)c6cccc7cccc5c67)cc4)c4ccccc43)[C@@H]2C)cc1,0.915
17,NC(=O)c1cc(S(=O)(=O)N2CCOCC2)ccc1F,0.993
18,Cc1cncc2cccc(S(=O)(=O)N[C@H]3CN[C@H](C(=O)NN)C3)c12,0.989
19,O=C(C[C@H]1CC=CCC[C@H](Cc2ccc(F)cc2)C(=O)OC[C@@H](Cc2ccccc2)NC1=O)NCCO,1.17
20,CO[C@H]1/C=C/O[C@@]2(C)Oc3c(C)c(O)c4c(O)c(c5c(nc6cc(C)ccn65)c4c3C2=O)NC(=O)/C(C)=C\C=C\[C@H](C)[C@H](O)[C@@H](C)C(O)[C@@H](C)[C@H](OC(C)=O)[C@@H]1C (stereo partly drawn),0.139
21,COc1ccc(/C=C/C(=O)O)cc1OC,1.05
22,CC12CC3CC(C)(C1)CC(N)(C3)C2.Cl,0.956
23,COc1cccc(S(=O)(=O)Nc2ccc3c(c2)[C@@H]2C[C@@H](CC(=O)NC4CCCCC4)O[C@@H](CO)[C@@H]2O3)c1,0.867
24,C[N+]1(CCCCC[N+]2(C)CCCC2)CCCC1.O=C([O-])C(O)C(O)C(=O)O.O=C([O-])C(O)C(O)C(=O)O,1.17
25,C[C@H]1CN=C(NS(=O)(=O)c2ccccc2)N1,0.943
26,CCCN1C[C@@H](C)[C@@H](OC)CN(C)C(=O)c2cc(NS(=O)(=O)c3cn(C)cn3)ccc2OC[C@H]1C,1.05
